molecular target: Acetylcholinesterase (Homo sapiens) (UniProt P22303); experiment: Reactivation of tabun-inhibited human recombinant AChE using acetylthiocholine iodide as substrate by Ellman spectrophotometric method relative to control

Chains of the proteins cited; added tags and fusions are not shown. Lines headed by an entry give the natural chain unless they say otherwise; changes in a name come on top.
UniProt P22303: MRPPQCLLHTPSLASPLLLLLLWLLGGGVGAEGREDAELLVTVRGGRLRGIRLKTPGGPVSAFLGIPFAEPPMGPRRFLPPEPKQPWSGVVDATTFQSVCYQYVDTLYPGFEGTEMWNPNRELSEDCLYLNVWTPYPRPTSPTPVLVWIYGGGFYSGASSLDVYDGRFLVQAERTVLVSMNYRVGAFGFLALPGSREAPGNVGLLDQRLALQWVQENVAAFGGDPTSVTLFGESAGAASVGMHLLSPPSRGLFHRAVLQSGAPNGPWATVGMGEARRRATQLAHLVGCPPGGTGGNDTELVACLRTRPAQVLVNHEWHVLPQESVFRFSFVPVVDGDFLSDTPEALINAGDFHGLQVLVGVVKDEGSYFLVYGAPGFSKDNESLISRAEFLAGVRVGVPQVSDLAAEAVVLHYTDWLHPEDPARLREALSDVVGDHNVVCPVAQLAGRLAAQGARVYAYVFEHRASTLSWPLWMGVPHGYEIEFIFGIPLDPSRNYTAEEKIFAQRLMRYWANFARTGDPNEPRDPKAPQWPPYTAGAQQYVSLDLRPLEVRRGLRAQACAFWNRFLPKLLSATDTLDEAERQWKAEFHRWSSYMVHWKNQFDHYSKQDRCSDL
UniProt P06276, whole entry, looked up: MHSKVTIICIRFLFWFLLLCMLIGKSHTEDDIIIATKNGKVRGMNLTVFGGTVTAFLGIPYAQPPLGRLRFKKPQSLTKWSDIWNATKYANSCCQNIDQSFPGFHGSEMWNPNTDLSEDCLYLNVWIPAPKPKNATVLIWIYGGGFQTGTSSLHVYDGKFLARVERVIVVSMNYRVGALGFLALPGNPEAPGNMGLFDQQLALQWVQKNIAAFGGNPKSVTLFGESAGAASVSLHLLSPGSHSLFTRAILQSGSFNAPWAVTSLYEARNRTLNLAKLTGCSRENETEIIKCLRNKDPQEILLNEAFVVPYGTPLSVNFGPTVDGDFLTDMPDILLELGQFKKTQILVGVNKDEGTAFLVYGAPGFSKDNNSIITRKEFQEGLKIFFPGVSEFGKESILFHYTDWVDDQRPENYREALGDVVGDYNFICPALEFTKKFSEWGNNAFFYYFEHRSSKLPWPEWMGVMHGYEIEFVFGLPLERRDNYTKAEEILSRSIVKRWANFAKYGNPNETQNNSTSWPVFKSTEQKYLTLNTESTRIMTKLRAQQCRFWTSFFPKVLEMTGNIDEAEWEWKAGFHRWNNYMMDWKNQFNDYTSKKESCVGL

| Compound | %max |
| --- | --- |
| NC(=O)c1cc[n+](C/C=C/C[n+]2cc(Cl)c(/C=N/O)c(Cl)c2)cc1 | 40% |
| NC(=O)c1cc[n+](CCC[n+]2ccc(/C=N/O)c(Cl)c2)cc1 | 80% |

molecular target: Acetylcholinesterase (Homo sapiens) (UniProt P22303); experiment: Reactivation of sarin-inhibited human recombinant AChE using acetylthiocholine iodide as substrate assessed as time required for maximal percentage of reactivation by Ellman spectrophotometric method

| Compound | TIME |
| --- | --- |
| NC(=O)c1cc[n+](C/C=C/C[n+]2cc(Cl)c(/C=N/O)c(Cl)c2)cc1 | 0.5 h |
| NC(=O)c1cc[n+](CCC[n+]2ccc(/C=N/O)c(Cl)c2)cc1 | 1.5 h |

molecular target: Acetylcholinesterase (Homo sapiens) (UniProt P22303); experiment: Reactivation of VX-inhibited human recombinant AChE at 200 uM using acetylthiocholine iodide as substrate by Ellman spectrophotometric method relative to control

| Compound | %max |
| --- | --- |
| NC(=O)c1cc[n+](C/C=C/C[n+]2cc(Cl)c(/C=N/O)c(Cl)c2)cc1 | 80% |

molecular target: Acetylcholinesterase (Homo sapiens) (UniProt P22303); experiment: Reactivation of VX-inhibited human recombinant AChE at 500 uM using acetylthiocholine iodide as substrate by Ellman spectrophotometric method relative to control

| Compound | %max |
| --- | --- |
| NC(=O)c1cc[n+](CCC[n+]2ccc(/C=N/O)c(Cl)c2)cc1 | 100% |

molecular target: Acetylcholinesterase (Homo sapiens) (UniProt P22303); experiment: Reactivation of VX-inhibited human recombinant AChE using acetylthiocholine iodide as substrate assessed as time required for maximal percentage of reactivation at 200 uM by Ellman spectrophotometric method

| Compound | TIME |
| --- | --- |
| NC(=O)c1cc[n+](C/C=C/C[n+]2cc(Cl)c(/C=N/O)c(Cl)c2)cc1 | 1 h |

molecular target: Acetylcholinesterase (Homo sapiens) (UniProt P22303); experiment: Reactivation of cyclosarin-inhibited human recombinant AChE using acetylthiocholine iodide as substrate assessed as maximal first-order reactivation rate by Ellman spectrophotometric method

| Compound | K |
| --- | --- |
| NC(=O)c1cc[n+](C/C=C/C[n+]2cc(Cl)c(/C=N/O)c(Cl)c2)cc1 | 0.49 min⁻¹ |
| NC(=O)c1cc[n+](CCC[n+]2ccc(/C=N/O)c(Cl)c2)cc1 | 0.49 min⁻¹ |

molecular target: Cholinesterases; ACHE & BCHE (Homo sapiens) (UniProt P06276+P22303); experiment: Selectivity ratio of Ki for human plasma BChE to Ki for recombinant human AChE

| Compound | Ratio Ki |
| --- | --- |
| NC(=O)c1cc[n+](C/C=C/C[n+]2cc(Cl)c(/C=N/O)c(Cl)c2)cc1 | 8.5 |
| NC(=O)c1cc[n+](CCC[n+]2ccc(/C=N/O)c(Cl)c2)cc1 | 6.5 |

molecular target: Acetylcholinesterase (Homo sapiens) (UniProt P22303); experiment: Reactivation of VX-inhibited human recombinant AChE using acetylthiocholine iodide as substrate assessed as overall second-order reactivation rate by Ellman spectrophotometric method

| Compound | K |
| --- | --- |
| NC(=O)c1cc[n+](C/C=C/C[n+]2cc(Cl)c(/C=N/O)c(Cl)c2)cc1 | 108 M⁻¹ s⁻¹ |
| NC(=O)c1cc[n+](CCC[n+]2ccc(/C=N/O)c(Cl)c2)cc1 | 13.7 M⁻¹ s⁻¹ |

molecular target: Acetylcholinesterase (Homo sapiens) (UniProt P22303); experiment: Reactivation of cyclosarin-inhibited human recombinant AChE using acetylthiocholine iodide as substrate by Ellman spectrophotometric method relative to control

| Compound | %max |
| --- | --- |
| NC(=O)c1cc[n+](C/C=C/C[n+]2cc(Cl)c(/C=N/O)c(Cl)c2)cc1 | 100% |
| NC(=O)c1cc[n+](CCC[n+]2ccc(/C=N/O)c(Cl)c2)cc1 | 100% |

molecular target: Acetylcholinesterase (Homo sapiens) (UniProt P22303); experiment: Reactivation of sarin-inhibited human recombinant AChE using acetylthiocholine iodide as substrate by Ellman spectrophotometric method relative to control

| Compound | %max |
| --- | --- |
| NC(=O)c1cc[n+](C/C=C/C[n+]2cc(Cl)c(/C=N/O)c(Cl)c2)cc1 | 80% |
| NC(=O)c1cc[n+](CCC[n+]2ccc(/C=N/O)c(Cl)c2)cc1 | 80% |

molecular target: Acetylcholinesterase (Homo sapiens) (UniProt P22303); experiment: Reactivation of tabun-inhibited human recombinant AChE using acetylthiocholine iodide as substrate assessed as maximal first-order reactivation rate by Ellman spectrophotometric method

| Compound | K |
| --- | --- |
| NC(=O)c1cc[n+](CCC[n+]2ccc(/C=N/O)c(Cl)c2)cc1 | 0.002 min⁻¹ |

molecular target: Acetylcholinesterase (Homo sapiens) (UniProt P22303); experiment: Reactivation of VX-inhibited human recombinant AChE using acetylthiocholine iodide as substrate assessed as time required for maximal percentage of reactivation at 500 uM by Ellman spectrophotometric method

| Compound | TIME |
| --- | --- |
| NC(=O)c1cc[n+](CCC[n+]2ccc(/C=N/O)c(Cl)c2)cc1 | 0.667 h |

molecular target: Acetylcholinesterase (Homo sapiens) (UniProt P22303); experiment: Reactivation of cyclosarin-inhibited human recombinant AChE using acetylthiocholine iodide as substrate assessed as time required for maximal percentage of reactivation by Ellman spectrophotometric method

| Compound | TIME |
| --- | --- |
| NC(=O)c1cc[n+](C/C=C/C[n+]2cc(Cl)c(/C=N/O)c(Cl)c2)cc1 | 0.167 h |
| NC(=O)c1cc[n+](CCC[n+]2ccc(/C=N/O)c(Cl)c2)cc1 | 0.167 h |

molecular target: Acetylcholinesterase (Homo sapiens) (UniProt P22303); experiment: Reactivation of tabun-inhibited human recombinant AChE using acetylthiocholine iodide as substrate assessed as overall second-order reactivation rate by Ellman spectrophotometric method

| Compound | K |
| --- | --- |
| NC(=O)c1cc[n+](CCC[n+]2ccc(/C=N/O)c(Cl)c2)cc1 | 4.67 M⁻¹ s⁻¹ |

molecular target: Acetylcholinesterase (Homo sapiens) (UniProt P22303); experiment: Reactivation of cyclosarin-inhibited human recombinant AChE using acetylthiocholine iodide as substrate assessed as overall second-order reactivation rate by Ellman spectrophotometric method

| Compound | K |
| --- | --- |
| NC(=O)c1cc[n+](C/C=C/C[n+]2cc(Cl)c(/C=N/O)c(Cl)c2)cc1 | 36.7 M⁻¹ s⁻¹ |
| NC(=O)c1cc[n+](CCC[n+]2ccc(/C=N/O)c(Cl)c2)cc1 | 41.7 M⁻¹ s⁻¹ |

molecular target: Acetylcholinesterase (Homo sapiens) (UniProt P22303); experiment: Reactivation of sarin-inhibited human recombinant AChE using acetylthiocholine iodide as substrate assessed as maximal first-order reactivation rate by Ellman spectrophotometric method

| Compound | K |
| --- | --- |
| NC(=O)c1cc[n+](C/C=C/C[n+]2cc(Cl)c(/C=N/O)c(Cl)c2)cc1 | 0.17 min⁻¹ |
| NC(=O)c1cc[n+](CCC[n+]2ccc(/C=N/O)c(Cl)c2)cc1 | 0.37 min⁻¹ |

molecular target: Acetylcholinesterase (Homo sapiens) (UniProt P22303); experiment: Reactivation of VX-inhibited human recombinant AChE using acetylthiocholine iodide as substrate assessed as dissociation constant of conjugated enzyme-oxime complex by Ellman spectrophotometric method

| Compound | K |
| --- | --- |
| NC(=O)c1cc[n+](C/C=C/C[n+]2cc(Cl)c(/C=N/O)c(Cl)c2)cc1 | 10 µM |
| NC(=O)c1cc[n+](CCC[n+]2ccc(/C=N/O)c(Cl)c2)cc1 | 200 µM |

molecular target: Acetylcholinesterase (Homo sapiens) (UniProt P22303); experiment: Reactivation of sarin-inhibited human recombinant AChE using acetylthiocholine iodide as substrate assessed as dissociation constant of conjugated enzyme-oxime complex by Ellman spectrophotometric method

| Compound | K |
| --- | --- |
| NC(=O)c1cc[n+](C/C=C/C[n+]2cc(Cl)c(/C=N/O)c(Cl)c2)cc1 | 60 µM |
| NC(=O)c1cc[n+](CCC[n+]2ccc(/C=N/O)c(Cl)c2)cc1 | 745 µM |

molecular target: Acetylcholinesterase (Homo sapiens) (UniProt P22303); experiment: Reactivation of tabun-inhibited human recombinant AChE using acetylthiocholine iodide as substrate assessed as dissociation constant of conjugated enzyme-oxime complex by Ellman spectrophotometric method

| Compound | K |
| --- | --- |
| NC(=O)c1cc[n+](CCC[n+]2ccc(/C=N/O)c(Cl)c2)cc1 | 7 µM |

molecular target: Acetylcholinesterase (Homo sapiens) (UniProt P22303); experiment: Reactivation of tabun-inhibited human recombinant AChE using acetylthiocholine iodide as substrate assessed as time required for maximal percentage of reactivation by Ellman spectrophotometric method

| Compound | TIME |
| --- | --- |
| NC(=O)c1cc[n+](C/C=C/C[n+]2cc(Cl)c(/C=N/O)c(Cl)c2)cc1 | 10 h |
| NC(=O)c1cc[n+](CCC[n+]2ccc(/C=N/O)c(Cl)c2)cc1 | 24 h |

molecular target: Acetylcholinesterase (Homo sapiens) (UniProt P22303); experiment: Reactivation of sarin-inhibited human recombinant AChE using acetylthiocholine iodide as substrate assessed as overall second-order reactivation rate by Ellman spectrophotometric method

| Compound | K |
| --- | --- |
| NC(=O)c1cc[n+](C/C=C/C[n+]2cc(Cl)c(/C=N/O)c(Cl)c2)cc1 | 47.2 M⁻¹ s⁻¹ |
| NC(=O)c1cc[n+](CCC[n+]2ccc(/C=N/O)c(Cl)c2)cc1 | 8.17 M⁻¹ s⁻¹ |

molecular target: Acetylcholinesterase (Homo sapiens) (UniProt P22303); experiment: Reactivation of cyclosarin-inhibited human recombinant AChE using acetylthiocholine iodide as substrate assessed as dissociation constant of conjugated enzyme-oxime complex by Ellman spectrophotometric method

| Compound | K |
| --- | --- |
| NC(=O)c1cc[n+](C/C=C/C[n+]2cc(Cl)c(/C=N/O)c(Cl)c2)cc1 | 220 µM |
| NC(=O)c1cc[n+](CCC[n+]2ccc(/C=N/O)c(Cl)c2)cc1 | 200 µM |

molecular target: Acetylcholinesterase (Homo sapiens) (UniProt P22303); experiment: Reactivation of VX-inhibited human recombinant AChE using acetylthiocholine iodide as substrate assessed as maximal first-order reactivation rate by Ellman spectrophotometric method

| Compound | K |
| --- | --- |
| NC(=O)c1cc[n+](C/C=C/C[n+]2cc(Cl)c(/C=N/O)c(Cl)c2)cc1 | 0.059 min⁻¹ |
| NC(=O)c1cc[n+](CCC[n+]2ccc(/C=N/O)c(Cl)c2)cc1 | 0.17 min⁻¹ |
